# Data taken from article PMC7288052 (Molecules, 2020).
# Chains of the proteins cited; added tags and fusions are not shown.
# UniProt P33535, whole entry: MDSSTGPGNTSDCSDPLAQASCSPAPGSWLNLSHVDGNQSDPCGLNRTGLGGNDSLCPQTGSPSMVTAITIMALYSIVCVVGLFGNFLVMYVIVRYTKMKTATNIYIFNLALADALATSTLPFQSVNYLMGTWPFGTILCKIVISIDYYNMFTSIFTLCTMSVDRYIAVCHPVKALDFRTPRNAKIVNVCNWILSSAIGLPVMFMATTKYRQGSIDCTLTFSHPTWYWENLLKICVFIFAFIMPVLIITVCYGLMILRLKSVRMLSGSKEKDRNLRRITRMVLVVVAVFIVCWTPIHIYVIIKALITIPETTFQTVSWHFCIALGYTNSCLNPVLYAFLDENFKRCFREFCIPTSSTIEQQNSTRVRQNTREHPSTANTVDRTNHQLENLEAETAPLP
# Target: T1, μ-opioid receptor (μOR) (Rattus norvegicus, UniProt P33535)
# T1 construct: from tissue; host or cells: rat brain homogenate (membrane fractions)
# Assay: competitive radioligand displacement assay, μOR, [3H]DAMGO, rat brain homogenate membranes
# Format: binding
# Description: The determinations were performed by a competitive radioligand displacement assay with selective radioligands.
# Membrane fractions of rat brain Homogenate were incubated at 25 °C for 60 mins in the presence of radioligands (0.5 nM) specific for each receptor (μOR: [^3H]DAMGO and δOR: [^3H]DELT II, obtained as a generous gift from Prof. Géza Tóth) and the increasing concentrations of the tested compounds (10^−11 up to 10^−5 M, each concentration in duplicate). For measuring non-specific binding, 10 μM naloxone was used as the competitor. The assay buffer contained 50mM Tris-HCl (pH 7.4), bovine serum albumin (0.1 mg/mL), bacitracin (30 μg/mL), bestatin (30 μM), captopril (10 μM), and phenylmethylsulfonyl fluoride (0.1 mM) in the total reaction volume of 1 mL. After the incubation, the binding reactions were terminated by rapid filtration with M-24 Cell Harvester (Brandel/USA) through GF/B Whatman glass fibre strips. The filters were pre-soaked with 0.5% PEI before harvesting in order to minimize non-specific binding. Filter discs were placed separately in 24-well plates and immersed with the Optiphase Supermix scintillation cocktail (Perkin Elmer, Waltham, MA, USA). Radioactivity was measured using a MicroBeta LS Trilux scintillation counter (PerkinElmer, Waltham, MA, USA).
smiles,measurement,value
"C[C@@H](NC(=O)[C@@H](N)Cc1ccc(O)cc1)C(=O)N[C@@H](Cc1ccccc1)C(=O)N[C@@H](Cc1ccccc1)C(N)=O [compound 1, H-Tyr-D-Ala-Phe-Phe-NH2, reference compound]",IC50,5.1 ± 3.5 nM
